{"sequences": {"note": "Chains of the proteins cited; added tags and fusions are not shown.", "Transient receptor potential cation channel subfamily A member 1 (Homo sapiens), O75762, UniProt O75762, whole entry F909A": "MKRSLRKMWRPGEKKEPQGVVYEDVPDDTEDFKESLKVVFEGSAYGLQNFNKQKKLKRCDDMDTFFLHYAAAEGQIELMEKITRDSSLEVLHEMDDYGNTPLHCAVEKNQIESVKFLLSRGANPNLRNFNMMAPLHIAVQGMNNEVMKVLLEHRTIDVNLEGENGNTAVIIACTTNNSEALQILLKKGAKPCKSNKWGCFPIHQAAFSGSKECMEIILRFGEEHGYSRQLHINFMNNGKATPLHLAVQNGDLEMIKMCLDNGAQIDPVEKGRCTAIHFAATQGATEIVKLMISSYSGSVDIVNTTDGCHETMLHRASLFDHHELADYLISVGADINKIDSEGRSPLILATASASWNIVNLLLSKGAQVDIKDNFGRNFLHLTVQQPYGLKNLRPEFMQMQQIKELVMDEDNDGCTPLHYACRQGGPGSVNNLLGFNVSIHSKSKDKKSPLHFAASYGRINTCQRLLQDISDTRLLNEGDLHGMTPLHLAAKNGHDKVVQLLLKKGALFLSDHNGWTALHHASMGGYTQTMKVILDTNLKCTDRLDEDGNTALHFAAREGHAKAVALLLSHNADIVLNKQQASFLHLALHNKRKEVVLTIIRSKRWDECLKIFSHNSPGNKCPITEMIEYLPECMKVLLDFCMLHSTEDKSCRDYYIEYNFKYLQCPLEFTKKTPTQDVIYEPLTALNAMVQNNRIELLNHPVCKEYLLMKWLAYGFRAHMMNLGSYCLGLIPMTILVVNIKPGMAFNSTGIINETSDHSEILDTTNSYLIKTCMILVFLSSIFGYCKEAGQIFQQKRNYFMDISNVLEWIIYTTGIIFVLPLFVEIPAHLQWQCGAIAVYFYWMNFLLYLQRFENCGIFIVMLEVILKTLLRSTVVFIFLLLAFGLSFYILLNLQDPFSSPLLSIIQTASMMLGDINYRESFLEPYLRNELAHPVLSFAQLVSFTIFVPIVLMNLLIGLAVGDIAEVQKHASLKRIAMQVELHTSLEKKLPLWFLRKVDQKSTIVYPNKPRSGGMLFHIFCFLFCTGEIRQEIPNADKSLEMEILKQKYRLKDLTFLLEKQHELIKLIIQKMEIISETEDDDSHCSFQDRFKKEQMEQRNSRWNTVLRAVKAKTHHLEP", "Transient receptor potential cation channel subfamily A member 1 (Homo sapiens), O75762, UniProt O75762, whole entry F944A": "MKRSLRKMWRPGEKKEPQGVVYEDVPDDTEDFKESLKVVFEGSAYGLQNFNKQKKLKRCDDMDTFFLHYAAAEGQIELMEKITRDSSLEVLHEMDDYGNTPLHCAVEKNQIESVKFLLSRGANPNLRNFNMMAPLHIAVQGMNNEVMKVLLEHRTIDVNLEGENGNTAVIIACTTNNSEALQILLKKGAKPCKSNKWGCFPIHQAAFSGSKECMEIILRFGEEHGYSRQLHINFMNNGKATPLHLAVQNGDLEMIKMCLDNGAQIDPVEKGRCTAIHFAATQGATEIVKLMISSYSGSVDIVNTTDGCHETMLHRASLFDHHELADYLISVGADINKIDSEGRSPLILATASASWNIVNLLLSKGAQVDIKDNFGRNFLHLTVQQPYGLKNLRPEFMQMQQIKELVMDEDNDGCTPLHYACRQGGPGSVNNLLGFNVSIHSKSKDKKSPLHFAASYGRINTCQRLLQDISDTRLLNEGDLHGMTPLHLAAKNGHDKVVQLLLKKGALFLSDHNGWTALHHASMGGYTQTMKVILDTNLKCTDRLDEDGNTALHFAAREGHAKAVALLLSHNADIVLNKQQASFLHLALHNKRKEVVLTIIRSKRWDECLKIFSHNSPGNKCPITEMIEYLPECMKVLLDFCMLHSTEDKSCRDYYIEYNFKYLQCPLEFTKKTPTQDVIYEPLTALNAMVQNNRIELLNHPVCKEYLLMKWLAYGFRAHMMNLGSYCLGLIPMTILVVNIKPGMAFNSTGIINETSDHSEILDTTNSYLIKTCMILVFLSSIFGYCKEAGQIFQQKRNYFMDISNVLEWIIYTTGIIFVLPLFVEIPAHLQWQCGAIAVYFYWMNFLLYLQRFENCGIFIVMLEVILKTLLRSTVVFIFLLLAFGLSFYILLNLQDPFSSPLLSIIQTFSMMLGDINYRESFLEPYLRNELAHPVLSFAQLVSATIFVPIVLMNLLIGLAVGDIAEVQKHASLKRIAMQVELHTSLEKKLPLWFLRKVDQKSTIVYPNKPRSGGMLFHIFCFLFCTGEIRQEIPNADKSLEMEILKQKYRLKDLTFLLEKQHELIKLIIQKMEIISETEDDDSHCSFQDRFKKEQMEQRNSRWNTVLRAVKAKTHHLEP"}, "source": "ChEMBL document CHEMBL4346663", "about": "“N-Cinnamoylanthranilates as human TRPA1 modulators: Structure-activity relationships and channel binding sites” (Eur J Med Chem, 2019)", "key": {"[1]": {"test_system": "Transient receptor potential cation channel subfamily A member 1 (Homo sapiens), O75762 [F909A]", "experiment": "Antagonist activity at human TRPA1 Phe909Ala mutant expressed in HEK293 cells assessed as Ca2+ influx at 100 uM by fluorescence assay", "type": "cell-based", "method_in_brief": "(§1)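 hTRPA1 F909A or F944A mutant HEK293 stable clones, loaded with Fluo-4AM (2 µM, 45 min, room temperature). Compound pre-incubated 10 min before the standard agonist was added. FlexStation fluorescence (485/538 nm). ΔRFU normalized to the standard agonist response set at 100 %, after DMSO vehicle subtraction.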"}, "[2]": {"test_system": "Transient receptor potential cation channel subfamily A member 1 (Homo sapiens), O75762 [F944A]", "experiment": "Antagonist activity at human TRPA1 Phe944Ala mutant expressed in HEK293 cells assessed as Ca2+ influx at 100 uM by fluorescence assay", "type": "cell-based", "method_in_brief": "as §1"}}, "note": "The source made the active and inactive calls. The calls are words filed in the database; no cut-off is given here.", "data": [{"compound": "CC(=C\\c1ccc(Cl)cc1)/C(C)=N/O", "note": "[AP18 5]", "values": [{"measurement": "Activity", "setting": "[1]", "result": "inactive"}, {"measurement": "Activity", "setting": "[2]", "result": "inactive"}]}]}
